Molecular target: Disintegrin and metalloproteinase domain-containing protein 17 (Homo sapiens, UniProt P78536)
Test: Inhibitory potency against Tumor necrosis factor alpha converting enzyme (TACE)

By UniProt entry, the sequences of proteins in these tests, tags left out. Where a name states a change or a piece, a line headed by the entry shows the natural chain unless it says otherwise.
UniProt P78536: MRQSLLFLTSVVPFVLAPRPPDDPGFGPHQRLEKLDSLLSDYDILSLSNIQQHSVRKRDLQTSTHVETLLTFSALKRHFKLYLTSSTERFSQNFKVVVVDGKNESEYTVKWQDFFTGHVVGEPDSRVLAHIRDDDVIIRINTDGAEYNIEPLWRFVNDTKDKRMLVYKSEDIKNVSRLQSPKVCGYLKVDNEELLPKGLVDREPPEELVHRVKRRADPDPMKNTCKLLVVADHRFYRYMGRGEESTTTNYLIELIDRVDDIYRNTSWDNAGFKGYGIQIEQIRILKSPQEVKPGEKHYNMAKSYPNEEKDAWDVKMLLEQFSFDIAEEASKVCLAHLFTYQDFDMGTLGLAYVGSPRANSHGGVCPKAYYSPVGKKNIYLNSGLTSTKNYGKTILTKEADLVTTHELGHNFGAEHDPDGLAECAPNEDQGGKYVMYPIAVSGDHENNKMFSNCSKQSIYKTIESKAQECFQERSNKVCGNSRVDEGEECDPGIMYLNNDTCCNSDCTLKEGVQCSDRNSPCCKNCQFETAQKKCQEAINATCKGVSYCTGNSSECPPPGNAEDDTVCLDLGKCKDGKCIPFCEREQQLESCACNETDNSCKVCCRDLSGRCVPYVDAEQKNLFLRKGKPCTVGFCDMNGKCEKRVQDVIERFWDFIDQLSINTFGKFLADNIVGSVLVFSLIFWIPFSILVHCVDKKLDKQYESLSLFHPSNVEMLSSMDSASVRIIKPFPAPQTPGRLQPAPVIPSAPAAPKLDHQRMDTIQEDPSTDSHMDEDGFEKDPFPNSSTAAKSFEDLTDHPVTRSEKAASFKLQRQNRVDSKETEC

CNC(=O)[C@@H](NC(=O)[C@H](CC(C)C)[C@H](O)C(=O)NO)C(C)(C)C
Ki: 6.3 nM
